Assay results published in patent EP4684787A1, “PHARMACEUTICAL COMPOSITION CONTAINING DIPEPTIDYL PEPTIDASE SMALL MOLECULE INHIBITOR” (Haisco Pharmaceuticals Pte. Ltd., priority 2023, dated 2024).

Target: Recombinant human DPP1 enzyme
Conditions: substrate Gly-Arg-AMC, fluorescence

In the case of Cn1c(=O)oc2ccc(-c3ccc(C[C@@H](C#N)NC(=O)[C@@H]4CNCCCO4)c(F)c3)cc21 [Compound A, (S)-N-((S)-1-cyano-2-(2-fluoro-4-(3-methyl-2-oxo-2,3-dihydrobenzo[d]oxazol-5-yl)phenyl)ethyl)-1,4-oxazepane-2-carboxamide], the IC50 is reported as 1.6 nM.
